ChEMBL document CHEMBL6114981, “Research progress of flavonoids targeting estrogen receptor in the treatment of breast cancer” (Bioorg Med Chem, 2025)

Amino acid sequences for entries named in this document (tags omitted).
UniProt P03372, whole entry: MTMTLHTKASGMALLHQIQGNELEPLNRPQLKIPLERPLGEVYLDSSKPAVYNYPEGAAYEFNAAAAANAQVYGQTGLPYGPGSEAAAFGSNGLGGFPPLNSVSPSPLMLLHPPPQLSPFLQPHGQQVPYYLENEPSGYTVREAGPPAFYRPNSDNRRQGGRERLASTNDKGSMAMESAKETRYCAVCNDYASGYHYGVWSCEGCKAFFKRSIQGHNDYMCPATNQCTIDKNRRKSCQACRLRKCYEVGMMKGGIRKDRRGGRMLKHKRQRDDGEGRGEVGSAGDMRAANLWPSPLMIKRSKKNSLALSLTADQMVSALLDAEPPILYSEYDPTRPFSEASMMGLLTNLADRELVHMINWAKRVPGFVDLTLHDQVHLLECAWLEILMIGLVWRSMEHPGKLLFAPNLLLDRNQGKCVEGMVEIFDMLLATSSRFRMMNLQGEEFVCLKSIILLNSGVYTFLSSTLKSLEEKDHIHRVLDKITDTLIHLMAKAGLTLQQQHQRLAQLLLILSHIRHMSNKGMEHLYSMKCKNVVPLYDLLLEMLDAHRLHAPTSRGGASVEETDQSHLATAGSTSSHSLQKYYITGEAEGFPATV

Assays:
[1] = target: Estrogen receptor (Homo sapiens) (UniProt P03372); experiment: Binding affinity to ERalpha (unknown origin) assessed as relative binding affinity by fluorescence polarization assay relative to control
[2] = target: Estrogen receptor (Homo sapiens) (UniProt P03372); conditions: dose 1.0 µM

| RBA [1] [%] | inhibition [2] [%] | SMILES |
| --- | --- | --- |
| 0.16 |  | COc1ccc(-c2c(C(=O)c3ccc(OCCN4CCCCC4)cc3)c3ccc(OC)cc3oc2=O)cc1 |
| 0.1 |  | Oc1ccc([C@H]2COc3cc(O)ccc3C2)cc1 |
|  | 41 | CC1=C(c2cc(F)cc(F)c2)C(c2ccc(/C=C/CN3CC(CF)C3)cc2)Oc2cc(O)ccc21 (stereo not drawn) |
